Assay results reported in patent US20050202522A1, “Method of screening for antimicrobial agents” (NATIONAL INSTITUTE OF ADVANCED INDUSTRIAL SCIENCE AND …, priority 2003, published 2005).

Tested on: FFRP pot1216151
Experiment: Gel filtration analysis of changes in assemblies of the FFRP induced by amino acids and metabolic intermediates
Assay type: binding, Pyrococcus sp. OT3
Details: metabolic intermediate 10 mM
Procedure: Changes in assemblies of the FFRP pot1216151 induced by interaction with amino acids and metabolic intermediates were analyzed in solution using gel filtration.
Gel filtration was carried out at a flow rate 1 ml/min, using a matrix (Protein Pak 125, 7.8×300 mm, Waters) and a 50 mM Tris-HCl buffer (pH 7.0) containing 300 mM sodium chloride. Flow of the protein was monitored by measuring the UV absorbance at 220 nm (LC Module I plus system, Waters). The FFRP pot1216151 purified by method 2, i.e., the rigorous method, was dissolved in 50 mM Tris-HCl buffer (pH 7.0) containing 200 mM sodium chloride, and kept at −80° C. until it was diluted by 10-fold with a 50 mM Tris-HCl buffer (pH 7.0) containing 300 mM sodium chloride, and mixed with each potential ligand for at least 30 minutes at room temperature (about 25° C.). In the mixture, the monomer concentration of the FFRP was approximately 100 μM.

O=C(O)CCC(=O)C(=O)O [2-oxoglutaric acid]
gel filtration peak that increased (FFRP monomer approximately 100 μM, at least 30 minutes at room temperature, UV 220 nm): the third peak increased | concluded effect on assembling of the protein (gel filtration): stabilizing intermediate assemblies
